# US10201546B2, “Quinolinyl modulators of RORγt” (Janssen Pharmaceutica NV, priority 2013, dated 2019)
# Sequences of proteins named here, by UniProt entry; tags and fusion partners are left off. A line that says so, or that is headed by a name, gives the form on record, which may keep a tag or linker. Residues count along the entry.
# UniProt P51449, other isoform, or with tags, fused parts or gaps: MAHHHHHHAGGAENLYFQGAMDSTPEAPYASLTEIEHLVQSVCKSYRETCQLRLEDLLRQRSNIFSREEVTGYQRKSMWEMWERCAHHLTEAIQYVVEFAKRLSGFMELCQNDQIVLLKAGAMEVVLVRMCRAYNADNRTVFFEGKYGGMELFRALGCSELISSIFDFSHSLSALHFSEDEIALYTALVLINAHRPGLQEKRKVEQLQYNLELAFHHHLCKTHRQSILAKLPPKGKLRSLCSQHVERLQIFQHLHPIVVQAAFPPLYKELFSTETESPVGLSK
# UniProt P51449, 258-518: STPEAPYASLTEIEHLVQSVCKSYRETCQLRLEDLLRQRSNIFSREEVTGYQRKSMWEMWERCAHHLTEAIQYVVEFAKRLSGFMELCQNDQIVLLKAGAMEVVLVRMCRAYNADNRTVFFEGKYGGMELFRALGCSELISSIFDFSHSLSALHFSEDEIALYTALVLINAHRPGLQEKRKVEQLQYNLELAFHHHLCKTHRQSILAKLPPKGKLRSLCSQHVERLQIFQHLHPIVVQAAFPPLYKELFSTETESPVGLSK
# Assays:
# [1] = target: human RORγt ligand binding domain (RORγt LBD) (Homo sapiens (Human), UniProt P51449); test: RORγt ThermoFluor assay (thermal shift, binding affinity Kd)
# [2] = target: human RORγt LBD fused to the DNA binding domain of the GAL4 protein (Homo sapiens (Human), UniProt P51449); test: RORγt (LBD) reporter assay in HEK293T cells; format: cell-based
Kd [1],SMILES,IC50 [2]
130 nM,"COc1nc2ccc(C(O)(c3ccc(C(F)(F)F)nc3)c3cncn3C)cc2c(Cl)c1CN1CC(C(F)(F)F)C1 (single isomer, unassigned) [Example 120b, (4-Chloro-2-methoxy-3-((3-(trifluoromethyl)azetidin-1-yl)methyl)quinolin-6-yl)(1-methyl-1H-imidazol-5-yl)(6-(trifluoromethyl)pyridin-3-yl)methanol]",–
–,"COc1nc2ccc(C(O)(c3cnnn3C)c3cnc(C)n3C)cc2c(Cl)c1CN1CCC(C(F)(F)F)CC1 (single isomer, unassigned) [Example 106c, (4-Chloro-2-methoxy-3-((4-(trifluoromethyl)piperidin-1-yl)methyl)quinolin-6-yl)(1,2-dimethyl-1H-imidazol-5-yl)(1-methyl-1H-1,2,3-triazol-5-yl)methanol]",17 nM
14 nM,"COc1nc2ccc(C(O)(c3ccc(C(F)(F)F)nc3)c3cncn3C)cc2c(Cl)c1CN1CC(C(F)(F)F)C1 (single isomer, unassigned) [Example 120c, (4-Chloro-2-methoxy-3-((3-(trifluoromethyl)azetidin-1-yl)methyl)quinolin-6-yl)(1-methyl-1H-imidazol-5-yl)(6-(trifluoromethyl)pyridin-3-yl)methanol]",–
–,"COc1nc2ccc(C(O)(c3cnnn3C)c3cnc(C)n3C)cc2c(Cl)c1CN1CCC(C(F)(F)F)CC1 (single isomer, unassigned) [Example 106b, (4-Chloro-2-methoxy-3-((4-(trifluoromethyl)piperidin-1-yl)methyl)quinolin-6-yl)(1,2-dimethyl-1H-imidazol-5-yl)(1-methyl-1H-1,2,3-triazol-5-yl)methanol]",17 nM
5300 nM,"COc1nc2ccc(C(O)(c3ccc(C)nc3C)c3cnnn3C)cc2c(Cl)c1OC1CCN(C)CC1 (single isomer, unassigned) [Example 65b, {4-Chloro-2-methoxy-3-[(1-methylpiperidin-4-yl)oxy]quinolin-6-yl}(2,6-dimethylpyridin-3-yl)(1-methyl-1H-1,2,3-triazol-5-yl)methanol]",–
